Measured values published in paper PMC4869338, “Pre-clinical evaluation of CYP 2D6 dependent drug–drug interactions between primaquine and SSRI/SNRI antidepressants” (Malaria Journal, 2016).

Amino acid sequences for entries named in this document (tags omitted).
UniProt P10635, whole entry: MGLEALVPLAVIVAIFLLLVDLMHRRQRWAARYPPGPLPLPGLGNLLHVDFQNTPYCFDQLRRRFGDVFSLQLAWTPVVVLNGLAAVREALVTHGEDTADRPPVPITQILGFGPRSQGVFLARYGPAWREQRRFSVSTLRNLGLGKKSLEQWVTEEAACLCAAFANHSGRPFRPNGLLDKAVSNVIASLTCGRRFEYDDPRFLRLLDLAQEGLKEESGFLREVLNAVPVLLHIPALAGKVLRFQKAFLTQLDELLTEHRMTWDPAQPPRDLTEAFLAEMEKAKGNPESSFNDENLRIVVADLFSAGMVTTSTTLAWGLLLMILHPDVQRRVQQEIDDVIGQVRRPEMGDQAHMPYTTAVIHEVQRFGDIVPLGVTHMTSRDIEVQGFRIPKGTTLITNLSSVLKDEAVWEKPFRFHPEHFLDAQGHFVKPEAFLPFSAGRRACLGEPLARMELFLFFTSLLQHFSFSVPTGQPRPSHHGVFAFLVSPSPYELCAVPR

Molecular target: Recombinant human CYP 2D6 (Homo sapiens, UniProt P10635)
Test: Time course of primaquine metabolism by recombinant human CYP 2D6 with fluoxetine pre-incubation
Type: in vitro ADME
Settings: fluoxetine 10 µM pre-incubation; primaquine 1 μM; 0-60 min

SMILES: CNCCC(Oc1ccc(C(F)(F)F)cc1)c1ccccc1 (stereo not shown) [fluoxetine]
- inhibition of primaquine metabolism by CYP 2D6: completely inhibited primaquine metabolism
